This is an account of results in PubChem BioAssay AID521 (Sanford-Burnham Center for Chemical Genomics, 2006).

Chains of the proteins cited; added tags and fusions are not shown.
UniProt P35236, whole entry: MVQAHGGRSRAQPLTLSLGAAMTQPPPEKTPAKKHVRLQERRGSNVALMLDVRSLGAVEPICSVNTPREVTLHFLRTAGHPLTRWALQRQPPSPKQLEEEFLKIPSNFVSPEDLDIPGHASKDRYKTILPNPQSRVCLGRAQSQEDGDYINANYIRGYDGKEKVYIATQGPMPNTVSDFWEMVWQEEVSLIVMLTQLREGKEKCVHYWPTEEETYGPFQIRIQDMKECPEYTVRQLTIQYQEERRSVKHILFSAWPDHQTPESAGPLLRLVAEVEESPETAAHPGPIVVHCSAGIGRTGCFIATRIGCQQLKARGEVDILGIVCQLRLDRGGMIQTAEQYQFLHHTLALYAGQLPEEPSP

Structures are written as SMILES. “And” between values parts separate entries of the source, which are not always exact repeats. Equal entries are not always repeated. This is a selection; strong and weak results do not stand in their true shares. The source made the active and inactive calls. Cut-off read from the data, not from the text of the source: active = inhibition above about 50%; inconclusive = no clear call, values can overlap the other calls; inactive = below that.

The target of this assay is Tyrosine-protein phosphatase non-receptor type 7 (Homo sapiens) (UniProt P35236). As to the kind of experiment: inhibitors of human HePTP phosphatase, primary screen, biochemical, absorbance, leukemia target (AID 521).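 Note: plate controls were vehicle for no effect and reference inhibitor for full effect.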 The note with it: recombinant HePTP phosphatase activity, OD absorbance; at 20 µM; stronger effect = higher value.
Take `CP(=S)(Nn1cnnc1)Oc1ccccc1` (centres undefined): the inhibition (in general, the drop in the measured response relative to a control, in per cent) is inactive: 11.9%.

`CN(C)CCOC(=O)C(O)(c1ccccc1)c1ccccc1`: the inhibition is inactive: -8.2%.

`CCOP(C)(=S)SCC(=O)NC(C)C(=O)O` (centres undefined): the inhibition is inactive: -10.5% and inactive: -2.6%.

On to `CP(=O)(Oc1ccccc1F)Oc1ccccc1F`, for which the inhibition was inactive: 5.1%.

Regarding `CP(=O)(NC(=O)Nc1ccccc1)Oc1ccccc1` (centres undefined), the inhibition was inactive: -12.5%.

For the molecule `COc1ccccc1OP(C)(=O)Nc1ccc(C)cc1` (centres undefined), the inhibition is inactive: 9.7%.

On to `Cc1ccc(NP(C)(=O)Oc2ccccc2)c(C)c1` (centres undefined), for which the inhibition is inactive: -3.2%.

With `Cc1ccc(C)c(NP(C)(=O)Oc2ccccc2)c1` (centres undefined), the inhibition is inactive: 12.7%.

`CP(=O)(Oc1ccc(Cl)cc1)Oc1ccc(Cl)cc1`: the inhibition was inactive: -2.2%.

For the molecule `CP(=O)(Oc1ccccc1)Oc1ccccc1`, the inhibition was inactive: 5.4%.

Turning to `Cc1nc2ccc3ccccc3c2s1.O=[N+]([O-])c1cc([N+](=O)[O-])c(O)c([N+](=O)[O-])c1`, the inhibition is inactive: 7%.

Consider `CN(C)CCOC(=O)C(O)(c1ccccc1)C1CCCCC1` (centres undefined), for which the inhibition is inactive: -6.2%.

Regarding `CP(=O)(Oc1ccc(F)cc1)Oc1ccc(F)cc1`, the inhibition is inactive: 11.5%.

For the molecule `CP(=O)(Nc1ccc2c(c1)OCCO2)Oc1ccccc1` (centres undefined), the inhibition was inactive: 22.1%.

Take `Cc1ccccc1NP(C)(=O)Nc1ccccc1C`: the inhibition was inactive: 2.1%.

Consider `CCOP(C)(=S)SCC(=O)NC(C)(CC)C(=O)O` (centres undefined), for which the inhibition was inactive: 7.3%.

With `CP(=O)(Nc1ccccc1F)Oc1ccccc1` (centres undefined), the inhibition was inactive: 5.3%.

Regarding `Cc1nc2ccc3ccccc3c2o1.O=[N+]([O-])c1cc([N+](=O)[O-])c(O)c([N+](=O)[O-])c1`, the inhibition is inactive: -0.3%.

Consider `COc1ccccc1OP(C)(=O)Nc1ccc(C)c(C)c1` (centres undefined), for which the inhibition is inactive: 3.2%.

With `CP(=O)(Nc1ccccn1)Oc1ccccc1` (centres undefined), the inhibition was inactive: -4.8%.

On to `CCc1ccc(OP(C)(=O)O)cc1`, for which the inhibition was inactive: 0.3%.

`CCN(CC)CC(O)COC(=O)C(O)(c1ccccc1)C1CCCCC1` (centres undefined): the inhibition was inactive: -0.8%.

For `COc1ccccc1OP(C)(=O)Nc1c(C)n(C)n(-c2ccccc2)c1=O` (centres undefined), the inhibition is inactive: -6.2%.

Regarding `CP(=O)(Oc1ccccc1)N1CCOC1=O` (centres undefined), the inhibition is inactive: 0.5%.
